The values below come from patent US20140329863A1 (priority 2011, published 2014).

For the data set, the system named is N2a-cl3 cells.

Dextran: the “Potency Cell Viability, mg/L” value is >10 (mg/L).
